From article PMC7403315, “Cyclic peptide FXII inhibitor provides safe anticoagulation in a thrombosis model and in artificial lungs” (Nature Communications, 2020)

The chains behind the UniProt entries cited, without tags or fusion partners. Residues count along the entry.
UniProt P00748, 373-615 limits assumed: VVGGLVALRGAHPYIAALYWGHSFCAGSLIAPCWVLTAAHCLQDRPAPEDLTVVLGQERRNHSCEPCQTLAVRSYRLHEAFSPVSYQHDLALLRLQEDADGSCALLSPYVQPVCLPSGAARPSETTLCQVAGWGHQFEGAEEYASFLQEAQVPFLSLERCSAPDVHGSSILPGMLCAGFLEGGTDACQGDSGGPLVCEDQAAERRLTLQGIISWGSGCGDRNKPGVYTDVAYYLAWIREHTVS

Assays:
[1] = target: T1, Mouse α-FXIIa (Mus musculus, UniProt Q80YC5); assay: FXIIa protease inhibition assay with fluorogenic substrate Boc-Gln-Gly-Arg-AMC; assay type: biochemical; settings: for IC50: read-out: IC50 Mouse FXIIa, crude, coumarin labeled peptides, individual plates; for Ki: read-out: Ki mouse FXIIa, crude bicyclic peptide carrying C-terminal coumarin amino acid
T1 construct: Mouse α-FXIIa; purchased Molecular Innovations MFXIIA
T1 sequence (Q80YC5 355-597 limits assumed): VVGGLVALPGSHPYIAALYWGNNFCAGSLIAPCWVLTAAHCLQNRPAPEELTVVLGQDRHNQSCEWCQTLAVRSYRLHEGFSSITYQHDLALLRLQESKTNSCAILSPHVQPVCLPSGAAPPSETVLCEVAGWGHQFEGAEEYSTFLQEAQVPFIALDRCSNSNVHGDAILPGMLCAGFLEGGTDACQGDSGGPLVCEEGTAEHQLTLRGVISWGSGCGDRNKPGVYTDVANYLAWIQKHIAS
T1 sequence (Q80YC5 20-354 limits assumed): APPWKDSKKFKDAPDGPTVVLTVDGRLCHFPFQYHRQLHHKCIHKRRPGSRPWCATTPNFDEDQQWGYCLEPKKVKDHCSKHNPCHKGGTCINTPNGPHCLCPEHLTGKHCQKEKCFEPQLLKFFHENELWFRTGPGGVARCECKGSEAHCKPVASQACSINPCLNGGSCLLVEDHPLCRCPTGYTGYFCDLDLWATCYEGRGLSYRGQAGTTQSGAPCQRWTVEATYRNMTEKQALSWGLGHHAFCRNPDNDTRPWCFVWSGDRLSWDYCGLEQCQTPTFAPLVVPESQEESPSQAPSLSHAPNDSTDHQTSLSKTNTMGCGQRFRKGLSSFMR
Experimental: (§1) In order to test the inhibitory activity of peptides without prior purification, we developed the following method. […] After solid-phase peptide synthesis, cleavage, and ether precipitation, the peptides were chemically cyclized and their Ki values were determined in a FXIIa activity assay using a fluorogenic substrate.
(§2) Protease inhibition assays
(§3) The inhibitory activity of peptides was determined by measuring the residual protease activity with a fluorogenic substrate. The assay was performed in buffer containing 10 mM Tris-Cl, pH […]
(§4) 1% (v/v) DMSO in a volume of 150 µl. FXIIa activity was measured with the fluorogenic substrate Boc-Gln-Gly-Arg-AMC (Bachem) at a final concentration of 50 µM. Mouse α-FXIIa (Molecular Innovations cat # MFXIIA) and human β-FXIIa (Molecular Innovations cat # HFXIIAB) were used at final concentrations of 0.4 nM. The reaction was pipetted as follows: 50 µl of bicyclic peptide in assay buffer were added to 50 µl of FXIIa in assay buffer and incubated for 10 minutes at 25°C before 50 µl of 150 µM fluorogenic substrate in assay buffer were added to measure the residual protease activity with an Infinite M200Pro fluorescence plate reader (excitation at 368 nm, emission at 467 nm; Tecan) for a period of 30 minutes with a read every minute at 25°C. The Tecan software i-control (version 1.1) was used for data analysis. Stock solutions of 1 mM bicyclic peptide were prepared by either dissolving the unpurified cyclization reaction with water or by dissolving purified and lyophilized peptide in water. The bicyclic peptides were serially diluted two-fold using assay buffer. Sigmoidal curves were fitted to the data using the following dose response equation (1), wherein x = peptide concentration, y = % protease activity, and p = Hill slope. IC50 values were derived from the fitted curve.
(§5) The inhibition constants (Ki) were calculated according to the equation of Cheng and Prusoff, Ki = IC50/(1+([S]0/Km), wherein IC50 is the functional strength of the inhibitor, [S]0 is the total substrate concentration, and Km is the Michaelis-Menten constant. […]
(§6) the substrate Boc-Gln-Gly-Arg-AMC. […]

[2] = target: T2, human β-FXIIa (Homo sapiens, UniProt P00748); assay: as above; assay type: biochemical
T2 construct: human β-FXIIa (Molecular Innovations cat #); purchased Molecular Innovations HFXIIAB; host or cells: human blood
Experimental: as §1, §2, §3, §4, §5, §6

[3] = read-out: IC50 Human FXIIa; crude, coumarin labeled peptides; individual plates
[4] = read-out: Ki human FXIIa; crude bicyclic peptide carrying C-terminal coumarin amino acid

Q: What does the source list for raCFRLPCRQLRCR [R1ra]?
A: IC50 [1]: 95.2 nM and 101 nM and 118 nM; Ki [1]: 88 ± 4 nM; IC50 [2, 3]: 14.5 nM and 15.1 nM; Ki [2, 4]: 12.4 nM

Q: What does the source list for qrCFRLPCRQLRCR [R1qr]?
A: IC50 [1]: 291 nM and 306 nM; Ki [1]: 250 nM; IC50 [2, 3]: 41.3 nM and 34.2 nM; Ki [2, 4]: 32 nM

Q: Which IC50 [1] does the source give for rlCFRLPCRQLRCR [R1rl] here?
A: Its IC50 is 521 nM.

Q: And the Ki [1]?
A: The Ki was 440 nM.

Q: What about the IC50 [2, 3] of the same compound?
A: Its IC50 is 95 nM and 103 nM.

Q: And the Ki [2, 4]?
A: The Ki was 83 nM.

Q: With rfCFRLPCRQLRCR [R1rf] as the compound, how does the IC50 [1] read?
A: The IC50 was 206 nM and 308 nM.

Q: What about the Ki [1] of the same compound?
A: The Ki was 220 nM.

Q: And the IC50 [2, 3]?
A: Its IC50 is 42.5 nM and 44.3 nM.

Q: What about the Ki [2, 4] of the same compound?
A: Its Ki is 36.3 nM.

Q: How did the IC50 [1] turn out when lrCFRLPCRQLRCR [R1lr] was run?
A: Its IC50 is 142 nM and 170 nM.

Q: What about the Ki [1] of the same compound?
A: Its Ki is 131 nM.

Q: What about the IC50 [2, 3] of the same compound?
A: The IC50 was 14.1 nM and 23.4 nM.

Q: And the Ki [2, 4]?
A: Its Ki is 16 nM.

Q: Which IC50 ([2]; crude, coumarin labeled peptides; individual plates; read-out: IC50 Human FXIIa) does the source give for `CC(C)C[C@@H]1NC(=O)[C@H](CCC(N)=O)NC(=O)[C@H](CCCNC(=N)N)NC(=O)[C@@H]2CSCCC(=O)N3CN(CN(C3)C(=O)CCSC[C@H](NC(=O)[C@@H](N)CCCNC(=N)N)C(=O)N[C@@H](Cc3ccccc3)C(=O)N[C@@H](CCCNC(=N)N)C(=O)N[C@@H](CC(C)C)C(=O)N3CCC[C@H]3C(=O)N2)C(=O)CCSC[C@@H](C(=O)N[C@@H](CCCNC(=N)N)C(N)=O)NC(=O)[C@H](CCCNC(=N)N)NC1=O` [FXII618, RCFRLPCRQLRCR] here?
A: The IC50 was 23.4 nM.

Q: With rqCFRLPCRQLRCR [R1rq] as the compound, how does the IC50 [1] read?
A: The IC50 was 167 nM and 215 nM.

Q: And the Ki [1]?
A: The Ki was 160 nM.

Q: And the IC50 [2, 3]?
A: The IC50 was 22.2 nM and 27.2 nM.

Q: What about the Ki [2, 4] of the same compound?
A: Its Ki is 21 nM.

Q: For frCFRLPCRQLRCR [R1fr], which IC50 [1] is on record?
A: The IC50 was 204 nM and 242 nM.

Q: And the Ki [1]?
A: Its Ki is 190 nM.

Q: What about the IC50 [2, 3] of the same compound?
A: The IC50 was 22.3 nM and 30.6 nM.

Q: What about the Ki [2, 4] of the same compound?
A: The Ki was 22 nM.

Q: Which IC50 [1] does the source give for srCFRLPCRQLRCR [R1sr] here?
A: Its IC50 is 892 nM.

Q: What about the Ki [1] of the same compound?
A: Its Ki is 750 nM.

Q: And the IC50 [2, 3]?
A: The IC50 was 66.6 nM and 74.1 nM.

Q: What about the Ki [2, 4] of the same compound?
A: The Ki was 59 nM.

Q: With arCFRLPCRQLRCR [R1ar] as the compound, how does the IC50 [1] read?
A: The IC50 was 418 nM.

Q: What about the Ki [1] of the same compound?
A: Its Ki is 350 nM.

Q: And the IC50 [2, 3]?
A: Its IC50 is 34.3 nM and 43.3 nM.

Q: And the Ki [2, 4]?
A: The Ki was 32 nM.

“And” between values parts separate entries of the source, which are not always exact repeats. Identical values can stand only once. Like-named read-outs stand apart in the source and are kept apart here.
